The chains behind the UniProt entries cited, without tags or fusion partners. Residues count along the entry.
UniProt Q14191, 2-1432 limits assumed: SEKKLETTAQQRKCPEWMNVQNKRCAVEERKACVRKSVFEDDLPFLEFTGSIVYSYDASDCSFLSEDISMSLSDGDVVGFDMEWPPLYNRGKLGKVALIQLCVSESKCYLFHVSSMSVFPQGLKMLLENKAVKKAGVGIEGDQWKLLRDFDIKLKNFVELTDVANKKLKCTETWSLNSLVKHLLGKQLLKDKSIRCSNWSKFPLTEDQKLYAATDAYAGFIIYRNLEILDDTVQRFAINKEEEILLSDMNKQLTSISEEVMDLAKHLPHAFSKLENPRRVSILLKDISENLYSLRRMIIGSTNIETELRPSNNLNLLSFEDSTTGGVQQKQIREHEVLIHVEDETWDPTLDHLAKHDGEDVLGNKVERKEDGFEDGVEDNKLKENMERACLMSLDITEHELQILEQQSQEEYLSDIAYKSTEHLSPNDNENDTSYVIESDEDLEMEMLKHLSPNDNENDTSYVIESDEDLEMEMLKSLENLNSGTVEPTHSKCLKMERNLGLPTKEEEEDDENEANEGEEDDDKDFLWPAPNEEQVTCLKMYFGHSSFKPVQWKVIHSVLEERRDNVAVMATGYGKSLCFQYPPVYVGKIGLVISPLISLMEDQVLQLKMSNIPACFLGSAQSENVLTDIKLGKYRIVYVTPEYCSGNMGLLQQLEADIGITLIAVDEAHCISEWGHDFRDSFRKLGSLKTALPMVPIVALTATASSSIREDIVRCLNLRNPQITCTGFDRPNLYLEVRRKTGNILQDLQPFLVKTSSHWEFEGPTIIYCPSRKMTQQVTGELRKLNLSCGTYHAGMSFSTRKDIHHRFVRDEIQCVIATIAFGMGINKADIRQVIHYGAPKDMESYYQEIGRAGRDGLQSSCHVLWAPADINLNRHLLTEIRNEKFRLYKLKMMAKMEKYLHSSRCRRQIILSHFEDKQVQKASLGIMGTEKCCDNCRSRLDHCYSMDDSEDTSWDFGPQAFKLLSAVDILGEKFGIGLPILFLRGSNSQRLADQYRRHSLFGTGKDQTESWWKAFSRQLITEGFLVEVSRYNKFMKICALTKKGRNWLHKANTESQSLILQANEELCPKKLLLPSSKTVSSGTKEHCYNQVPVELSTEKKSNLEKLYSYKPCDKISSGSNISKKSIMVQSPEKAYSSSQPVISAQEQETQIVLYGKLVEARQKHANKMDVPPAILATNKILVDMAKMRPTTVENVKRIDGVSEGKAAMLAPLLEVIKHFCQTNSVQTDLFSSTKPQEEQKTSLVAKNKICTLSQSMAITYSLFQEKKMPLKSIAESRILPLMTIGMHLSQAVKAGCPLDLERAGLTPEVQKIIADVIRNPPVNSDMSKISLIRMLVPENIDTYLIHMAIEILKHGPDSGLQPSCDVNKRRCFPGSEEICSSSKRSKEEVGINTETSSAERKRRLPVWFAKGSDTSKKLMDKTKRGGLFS

In patent publication US20250346600A1, “TRICYCLIC DERIVATIVES AND RELATED USES” (MOMA Therapeutics, Inc., priority 2023, published 2025):

Tests used:
HCT116 cells = experiment: HCT116 (MSI) 7 day viability, CellTiter Glo; conditions: read-out: HCT116 (MSI) Viability 7 Day Abs AC50, 7 days
HT29 cells = experiment: HT29 (MSS) 7 day viability, CellTiter Glo; conditions: read-out: HT29 (MSS) Viability 7 Day CTGAbs AC50, 7 days
[1] = target: Full length WRN protein (aa 2-1432) (Homo sapiens (Human), UniProt Q14191); experiment: WRN ATPase ADP-Glo biochemical assay, Assay Format B (100 μM ATP); conditions: read-out: ATPase ADPGlo AC50 (uM)- Assay Format B, 0.25 nM WRN, 100 nM C6.18 ssDNA, 60 min preincubation

- AC50 [1]: 0.005 to 0.015 µM
Compound: C=CC(=O)N1CCc2nc(-c3ccc(C4CCC4)cc3)n3c2C(C1)N(C(=O)c1cnc(C(F)(F)F)cc1N)CC3 (stereo not drawn)
- AC50 (HCT116 cells): 1 to 100 nM
- AC50 (HT29 cells): > 3000 nM
